This note sets out measurements from patent US9193687B2 (priority 2007, dated 2015).

Read-outs that look alike come from different tables or passages of the source.

Data set [1] has as its system Human mammary carcinoma (MX-1) tumor cells. The data set can be described thus: In vitro cytotoxicity, SRB assay, 72-hr incubation. As to conditions: read-out: Cytotoxicity IC50, MX-1.
In data set [2] the test system is CCRF-CEM human lymphoblastic leukemia cells. The data set can be described thus: cells. As to conditions: 72 h, read-out: Cytotoxicity IC50, CCRF-CEM.
Data set [3] deals with Human colon carcinoma HCT-116 cells. The data set can be described thus: cells.
In data set [4] the test system is CCRF-CEM human lymphoblastic leukemia cells. Particulars: read-out: Cytotoxicity IC50, CCRF-CEM; Table 1; XTT, 72-hr incubation.
The mark [5] stands for this setting: HCT-116, read-out: Cytotoxicity IC50, HCT-116.

Take `Cc1ccc(Nc2c3ccccc3nc3c(C)cccc23)cc1NC(=O)Nc1ccc(N(CCCl)CCCl)cc1` [BO-1051]: the IC50 in data set [1] turned out to be 0.24 µM.

As to `CCOC(=O)Nc1cc(COC(=O)Oc2ccc(N(CCCl)CCCl)cc2)cc(Nc2c3ccccc3nc3ccccc23)c1` [BO-1065, carbonic acid 3-(acridin-9-yl-amino)-5-ethoxycarbonylaminobenzyl ester 4-[bis(2-chloroethyl)amino]phenyl ester], the IC50 in data set [2] came out at 0.32 µM.

Take `COc1ccc(Nc2c3ccccc3nc3c(C)cccc23)cc1NC(=O)Oc1ccc(N(CCCl)CCCl)cc1` [BO-1213]: the IC50 in data set [3] (HCT-116, 72 h, read-out: Cytotoxicity IC50, HCT-116) worked out at 0.24 µM.

Take `Cc1cccc2c(Nc3cc(COC(=O)Nc4ccc(N(CCCl)CCCl)cc4)cc(NC(=O)OCC(C)C)c3)c3ccccc3nc12` [BO-1245]: in data set [4], the IC50 is 0.75 µM.

Consider `COc1ccc2nc(C)cc(Nc3cccc(NC(=O)Nc4ccc(N(CCCl)CCCl)cc4)c3)c2c1` [BO-1547], for which, in data set [2], the IC50 worked out at 0.24 µM.

As for `O=C(CCN1CCCCC1)Nc1ccc(NC(=O)Nc2ccc(N(CCCl)CCCl)cc2)cc1` [BO-2057], the IC50 in data set [3] (setting [5]) came to 1.77 µM.

Regarding `O=C(CN1CCCC1)Nc1ccc(NC(=O)Nc2ccc(N(CCCl)CCCl)cc2)cc1` [BO-2093], in data set [3] (setting [5]), the IC50 is 1.77 µM.
